Results from paper PMC4459640 (European journal of pharmaceutical sciences : official …, 2014).

Protein sequences, listed by entry. Tags and fused reporters are not part of them. Lines headed by an entry give the natural chain unless they say otherwise; changes in a name come on top.
UniProt P0DMM9: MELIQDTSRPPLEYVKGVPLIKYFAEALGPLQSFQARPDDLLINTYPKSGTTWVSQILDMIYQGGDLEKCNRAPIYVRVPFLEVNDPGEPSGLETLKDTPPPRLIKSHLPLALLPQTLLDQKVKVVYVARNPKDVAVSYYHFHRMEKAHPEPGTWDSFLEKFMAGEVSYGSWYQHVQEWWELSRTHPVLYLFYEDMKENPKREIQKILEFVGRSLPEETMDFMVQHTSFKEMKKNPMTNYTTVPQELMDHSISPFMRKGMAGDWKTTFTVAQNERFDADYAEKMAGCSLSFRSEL

Target: human SULT1A3 (Homo sapiens, UniProt P0DMM9)
Conditions: pH 7.5

Question: CN1CC[C@]23c4c5ccc(O)c4O[C@H]2[C@@H](O)C=C[C@H]3[C@H]1C5 [Morphine, morphine] was tested. Which “Vmax, SULT1A3” value did it give?
Answer: > 3.00 nmol/min/mg
